Literature values, collected in patent publication US20200315241A1 (Nude Nicotine, Inc., priority 2017, published 2020).

Conditions: Table 7; nicotine salt (organic acid); cited from earlier work

Nicotine adipate and Nicotine gallate are within 0.2 log units of each other in pKa: 4.43 for the first, 4.4 for the second.

First: Nicotine glutamate
Second: Nicotine nicotinate
The pKa of the first is lower: 2.19 for the first, 4.75 for the second.

Nicotine prolinate and Nicotine threoninate are within 0.2 log units of each other in pKa: 1.99 for the first, 2.09 for the second.

Same assay, conditions: Table 7; nicotine salt (organic acid); second value; cited from earlier work

For Nicotine adipate, the pKa is given as 5.41.
